Where “and” joins values, the source holds several entries; their conditions need not be identical. Equal values may be shown once.

The experiment has as its target SARS-CoV-2 3CLpro enzyme (Severe acute respiratory syndrome coronavirus 2, UniProt P0DTD1). In kind it is biochemical.
Consider `CC(C)CN(C[C@@H](O)[C@H](Cc1ccccc1)NC(=O)O[C@H]1CCOC1)S(=O)(=O)c1ccc(N)cc1` [Amprenavir], for which the “percent enzymatic activity, AVG” value was determined as 90.4762%; the “percent enzymatic activity, individual values” is 88.9401% and 88.0184% and 94.4701% (2×).
Consider `C[C@H]1C[C@@H]2[C@H]([C@@H](O)C[C@@]3(C)[C@H]2CC[C@]3(O)C(=O)CO)[C@@]2(C)C=CC(=O)C=C12` [Methylprednisolone], for which the “percent enzymatic activity, AVG” value is recorded as 107.7%; the “percent enzymatic activity, individual values” is 115.127% and 102.748% and 105.224%.
In the case of `NC(=O)c1ncn([C@@H]2O[C@H](CO)[C@@H](O)[C@H]2O)n1` [Ribavirin], the “percent enzymatic activity, AVG” value is recorded as 96.507%; the “percent enzymatic activity, individual values” is 92.1775% and 102.652% and 94.6914%.
